The source of these data is ChEMBL document CHEMBL1126740, “(S)- and (R)-8-(di-n-propylamino)-6,7,8,9-tetrahydro-3H-benz[e]indole-1-carbaldehyde: a new class of orally active 5-HT1A-receptor agonists” (J Med Chem, 1993).

By UniProt entry, the sequences of proteins in these tests, tags left out.
UniProt P61169, whole entry: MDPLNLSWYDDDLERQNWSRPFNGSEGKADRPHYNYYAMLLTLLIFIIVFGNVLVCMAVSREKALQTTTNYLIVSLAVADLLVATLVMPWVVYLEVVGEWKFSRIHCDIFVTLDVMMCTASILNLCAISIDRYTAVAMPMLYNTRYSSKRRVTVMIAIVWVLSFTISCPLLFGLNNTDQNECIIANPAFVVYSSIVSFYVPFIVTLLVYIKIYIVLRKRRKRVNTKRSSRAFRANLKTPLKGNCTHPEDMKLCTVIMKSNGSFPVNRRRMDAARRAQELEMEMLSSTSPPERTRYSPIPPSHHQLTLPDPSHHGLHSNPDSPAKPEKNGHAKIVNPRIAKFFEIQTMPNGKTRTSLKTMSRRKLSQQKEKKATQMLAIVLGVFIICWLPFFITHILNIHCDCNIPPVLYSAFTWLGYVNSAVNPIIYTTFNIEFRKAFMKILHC

The target in this experiment is D(2) dopamine receptor (Rattus norvegicus, UniProt P61169). As to the kind of experiment: Displacement of [3H]spiperone from dopamine receptor D2. (In general: Loss of bound radioactivity is the signal in a displacement assay; it reports binding, not function.)

SMILES strings stand for the structures.

Broadly, the Ki is a measure of affinity in units of concentration, obtained from inhibition or displacement. A low value points to a stronger hold on the target. As to `CN(C)[C@@H]1CCc2ccc3[nH]ccc3c2C1`, affinity was put at a Ki of 0.17 µM. Turning to `CN(C)C1CCc2ccc3[nH]ccc3c2C1` (racemic), the affinity, expressed as Ki, was 0.3 µM.
